Here are results for 29 molecules from PubChem BioAssay AID1499 (Sanford-Burnham Center for Chemical Genomics, 2009).

By UniProt entry, the sequences of proteins in these tests, tags left out.
UniProt P05107, whole entry, looked up: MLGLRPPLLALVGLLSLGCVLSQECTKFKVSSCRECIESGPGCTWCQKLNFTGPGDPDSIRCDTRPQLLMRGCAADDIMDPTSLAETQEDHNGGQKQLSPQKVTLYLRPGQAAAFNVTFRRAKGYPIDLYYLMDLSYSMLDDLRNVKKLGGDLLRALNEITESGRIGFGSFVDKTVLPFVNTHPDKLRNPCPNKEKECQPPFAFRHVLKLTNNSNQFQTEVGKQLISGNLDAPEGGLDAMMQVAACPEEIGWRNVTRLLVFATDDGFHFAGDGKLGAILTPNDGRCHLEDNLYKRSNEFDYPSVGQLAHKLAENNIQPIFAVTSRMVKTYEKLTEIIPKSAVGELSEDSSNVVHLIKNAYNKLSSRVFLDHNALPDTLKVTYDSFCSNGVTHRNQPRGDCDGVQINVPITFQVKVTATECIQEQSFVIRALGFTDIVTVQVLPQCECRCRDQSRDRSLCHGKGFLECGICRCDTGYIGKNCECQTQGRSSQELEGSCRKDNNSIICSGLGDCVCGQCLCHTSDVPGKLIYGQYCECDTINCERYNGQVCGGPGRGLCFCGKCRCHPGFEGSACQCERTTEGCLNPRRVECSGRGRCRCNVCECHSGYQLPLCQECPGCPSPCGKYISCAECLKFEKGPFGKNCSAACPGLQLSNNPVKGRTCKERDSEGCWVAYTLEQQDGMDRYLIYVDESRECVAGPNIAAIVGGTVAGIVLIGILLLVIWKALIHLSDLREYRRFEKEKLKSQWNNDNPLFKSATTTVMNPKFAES

The list shows a part of the results, in another mix than the full data. The source made the active and inactive calls.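 The calls were made as follows: active = 10 µM primary screen giving 50% or more activity, confirmed by 40% or more on retest at that dose; inactive = the rest.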

This experiment concerns the target Integrin beta-2 (Homo sapiens) + Integrin alpha-M (Homo sapiens) (UniProt P05107+P11215). As to the kind of experiment: agonists of integrin CD11b/CD18-fibrinogen binding – K562 cells, luminescence, primary screen (AID 1499). Particulars: K562 CD11b/CD18 adhesion to fibrinogen, ATPlite luminescence; at 10 µM; active compounds read high. Background: In ATP-based viability assays light output follows the ATP content of the culture.
As for `Oc1ccccc1CNc1ccccn1`, the activation was inactive: -1.4%.

Turning to `Cc1c2non([O-])c-2c(C)[n+](=O)[n+]1[O-]`, the activation is inactive: -4.2%.

For the molecule `CCN(N=Nc1nonc1N)c1nonc1N`, the activation was inactive: 3%.

On to `CCOP(=O)(Nc1ccccc1)OCC`, for which the activation is inactive: -4.4%.

As to `Cc1cc(SC(NC(=O)c2ccc(F)cc2)C(Cl)(Cl)Cl)ncn1` (centres undefined), the activation was inactive: 4.7%.

Take `O=[N+]([O-])c1cccc2n[nH]nc12`: the activation was inactive: -3.9%.

For the molecule `CCc1nc2c(n1)c1c(non1O)c1c2no[n+]1[O-]`, the activation is inactive: 6.7%.

For the molecule `CC(C)C(=O)NC(Sc1ccccc1)C(Cl)(Cl)Cl` (centres undefined), the activation was inactive: 1.9%.

As to `O=P(Nc1nccs1)(c1ccccc1)c1ccccc1`, the activation was inactive: -0.1%.

Take `c1nnnn1CCn1cnnn1`: the activation is inactive: 0.6%.

Regarding `O=C(OC1CN2CCC1CC2)c1cccc(Cl)c1` (centres undefined), the activation was inactive: -2.8%.

Turning to `O=P1(Nc2nc3ccc(Cl)cc3s2)COc2ccccc2O1` (centres undefined), the activation was inactive: 0.3%.

Take `Cc1ccc(NCCc2c([N+](=O)[O-])cc([N+](=O)[O-])cc2[N+](=O)[O-])cc1`: the activation was inactive: -0.3%.

For the molecule `Cc1cccc(OCC(=O)OC2CN3CCC2CC3)c1` (centres undefined), the activation is inactive: -4.3%.

Take `O=[N+]([O-])c1ccc2c(c1)nnn2O`: the activation was inactive: -3.8%.

For `CCOP1(=S)c2c(C)nn(CCC#N)c2N=C(c2ccc(F)cc2)N1C` (centres undefined), the activation is inactive: -4.9%.

For `O=P1(Nc2ncccn2)COc2ccccc2OC1`, the activation is inactive: 2.9%.

On to `O=P1(Nc2ccc(Br)cn2)COc2ccccc2OC1`, for which the activation was inactive: -4.3%.

Turning to `Cc1ccc(OCC(=O)OC2CN3CCC2CC3)cc1` (centres undefined), the activation was inactive: -1.5%.

Regarding `Cc1nn(-c2ccccc2)c2c1P(=O)(N1CCOCC1)N(C)C(c1ccccc1)=N2` (centres undefined), the activation was inactive: 12.2%.

As for `O=P1(Nc2ccccn2)COc2ccccc2OC1`, the activation was inactive: 6.2%.

In the case of `Clc1n[nH]nc1-c1nn[nH][15n]1`, the activation is inactive: -5.1%.

As to `COP1(=S)c2c(C)nn(CCC#N)c2N=C(c2ccc(F)cc2)N1C` (centres undefined), the activation is inactive: 3.9%.

As to `O=C(COc1ccccc1)OC1CN2CCC1CC2` (centres undefined), the activation is inactive: 1.4%.

`Cc1cc(SC(NC(=O)c2ccccc2)C(Cl)(Cl)Cl)nc(C(C)C)n1` (centres undefined): the activation was inactive: -3%.

With `CCN(CC)C(=S)SC(NC=O)C(Cl)(Cl)Cl` (centres undefined), the activation is inactive: 0.3%.

Take `Cc1ccc2nc3c(c(C)c2c1)CC(C(Cl)Cl)S3` (centres undefined): the activation is inactive: -0.2%.

Regarding `O=C(OC1CN2CCC1CC2)C12CC3CC(CC(C3)C1)C2` (centres undefined), the activation is inactive: 0.3%.

Regarding `Cc1c2c(nc3ccccc13)SC(C(Cl)Cl)C2` (centres undefined), the activation is inactive: 6.5%.
